Assay: Absorbance spectrum of light absorbing agents
Assay type: physicochemical
Conditions: light absorbing agent at 1%
Source text: Table 1 summarizes the properties of different light absorbing agents tested according to the invention. The Table presents the absorbance peak and the estimated width of the absorbance band, based on the experimental spectra covering around 90% of the dye absorbance. The intrinsic fluorescence of the agents at the emission wavelength of 570 nm (green channel) or at the emission of 666 nm (red channel) is indicated. Intrinsic fluorescence is expressed as the percentage of the fluorescence compared to cy3 fluorescence if present at 1 μM for green channel (=100%) or Oyster645 fluorescence if present at 1 μM for red channel (=100%). Experimental details are given in example 4.

## Blue Dextran [(B) Blue Dextran]
  Absorbance spectrum peak: 619 nm
Estimated width of band covering around 90% of the dye absorbance
  Absorbance spectrum (estimated min-max): 475-750
